Reference: patent publication US9206463B2, “Method of testing a disinfectant or antibiotic using phenanthridium derivatives” (Montana State University, priority 2006, dated 2015)

What was measured:
Anoxybacillus = conditions: PCR inhibition after treating viable cells; cited from earlier work
Micrococcus luteus = experiment: genomic DNA yield of live cells after EMA treatment; conditions: EMA 50 μM
[1] = system: bacterial duck pond isolates; experiment: defined mixtures of live and isopropanol-killed isolates, PMA treatment, 16S rRNA gene DGGE profile; format: cell-based; conditions: PMA 50 μM
[2] = system: Salmonella enterica serovar Typhimurium; experiment: hypochlorite disinfection, loss of culturability by plate counts; format: cell-based
[3] = system: Salmonella enterica serovar Typhimurium; experiment: hypochlorite disinfection monitored by PMA treatment, DNA extraction and qPCR of invA; format: cell-based

CC[n+]1c(-c2ccccc2)c2cc(N=[N+]=[N-])ccc2c2ccc(N)cc21.[Br-] [EMA]
suitability for live-dead differentiation (Anoxybacillus): unsuitable for live-dead differentiation | loss of DNA due to EMA treatment of live cells (Micrococcus luteus): significant loss of DNA

CC[N+](C)(CC)CCC[n+]1c(-c2ccccc2)c2cc(N=[N+]=[N-])ccc2c2ccc(N)cc21.[Cl-].[Cl-] [PMA]
DGGE bands after PMA treatment [1]: suppression of bands of the isopropanol-killed isolates

[Na+].[O-]Cl [hypochlorite, sodium hypochorite]
hypochlorite concentrations resulting in complete loss of culturability [2]: ≥ 25 ppm | hypochlorite concentrations with only minor effect on plate counts ([2]; 15 minutes incubation): up to 10 ppm | strongest qPCR signal reduction ([3]; 40 ppm hypochlorite, Ct of PMA-treated versus non-treated aliquots, invA): around 14 amplification cycles | hypochlorite concentration at which the cell debris pellet of PMA-treated samples starts to be increasingly red ([3]; 15 minutes incubation, PMA 50 μM): around 25 ppm | hypochlorite concentration at which qPCR signal reduction started to be significant ([3]; Ct of PMA-treated versus non-treated aliquots, invA): 20 ppm

CC(C)O [isopropanol]
viability after isopropanol exposure (Streptococcus sobrinus): complete loss of viability
